1 substance from patent US20140296129A1 can be followed below.

Sequences of proteins named here, by UniProt entry; tags and fusion partners are left off. Residues count along the entry.
UniProt P25101, 21-427: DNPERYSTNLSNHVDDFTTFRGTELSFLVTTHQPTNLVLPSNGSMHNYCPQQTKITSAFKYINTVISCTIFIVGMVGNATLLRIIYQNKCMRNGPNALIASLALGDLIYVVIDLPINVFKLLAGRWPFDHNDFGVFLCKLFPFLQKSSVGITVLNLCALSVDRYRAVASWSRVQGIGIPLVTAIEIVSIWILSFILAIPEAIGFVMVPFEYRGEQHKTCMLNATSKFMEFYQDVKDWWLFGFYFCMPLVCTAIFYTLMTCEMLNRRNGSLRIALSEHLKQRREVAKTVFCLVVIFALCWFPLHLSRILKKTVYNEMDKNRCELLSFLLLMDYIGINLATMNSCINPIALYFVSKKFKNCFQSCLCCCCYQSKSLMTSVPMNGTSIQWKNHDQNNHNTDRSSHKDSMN

The target of this test is endothelin receptor A (ETRA) on human uterine smooth muscle cells (human) (UniProt P25101). As to the kind of experiment: cell-based or functional assay.

“endothelin-1 (ET-1) (from UniProt P05305 53-73) (peptide)” displayed a contraction of hUtSMC collagen lattices (relative lattice area, % of control without ET-1) of 78%.
